Assay results as given in PubChem BioAssay AID743126 (The Scripps Research Institute Molecular Screening Center, 2013).
This is a selection; strong and weak results do not stand in their true shares. Some results for these compounds are left out of this collection, so the calls shown say nothing about other tests. Active and inactive are the calls of the source.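 How the source made its calls: active means inhibition above mean plus 3 SD of compounds lying within the high and low control bounds (cut at about 19% in these data); inactive means the rest.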

By UniProt entry, the sequences of proteins in these tests, tags left out.
UniProt Q9NZ20, whole entry: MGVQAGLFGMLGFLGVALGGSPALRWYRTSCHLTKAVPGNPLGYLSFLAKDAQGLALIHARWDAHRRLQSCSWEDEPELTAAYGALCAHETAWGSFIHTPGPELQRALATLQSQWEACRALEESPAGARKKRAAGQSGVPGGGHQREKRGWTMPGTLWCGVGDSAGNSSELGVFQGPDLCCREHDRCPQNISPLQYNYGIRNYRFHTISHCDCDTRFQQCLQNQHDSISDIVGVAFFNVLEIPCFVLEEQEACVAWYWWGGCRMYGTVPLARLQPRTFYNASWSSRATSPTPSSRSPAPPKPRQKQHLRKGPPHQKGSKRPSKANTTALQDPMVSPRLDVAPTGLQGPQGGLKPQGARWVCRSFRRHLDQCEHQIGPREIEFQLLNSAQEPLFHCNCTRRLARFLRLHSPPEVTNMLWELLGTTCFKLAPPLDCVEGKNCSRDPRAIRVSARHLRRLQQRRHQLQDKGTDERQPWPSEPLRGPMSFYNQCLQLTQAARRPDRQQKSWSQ

Target: Group 3 secretory phospholipase A2 (Homo sapiens) (UniProt Q9NZ20)
Assay: human group III sPLA2 inhibitors, primary screen, biochemical, QFRET, BODIPY PC-A2 liposome substrate (AID 743126);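 further: 0% = median of test compound wells and 100% = no enzyme DMSO wells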
Settings: QFRET BODIPY PC-A2 liposome hydrolysis, fluorescence; at 12.2 µM; stronger effect = higher value

Compound	inhibition
COc1cc(C(=O)NCC2(N(C)C)CCCCC2)c([N+](=O)[O-])cc1OC	inactive: 10.2%
CN(C)C1(CNC(=O)c2ccc(Br)cc2)CCCCC1	inactive: 5.1%
O=C(NCC1(N2CCCCC2)CCCCC1)c1cccc(Cl)c1	inactive: 12.7%
COc1cccc(C(=O)NCC2(N3CCCCC3)CCCCC2)c1	inactive: -0.77%
COc1ccc(Cl)cc1C(=O)NCC1(N(C)C)CCCCC1	inactive: -6.78%
O=C(OC1CN2CCC1CC2)C(CO)(c1ccccc1)c1ccccc1 (stereo unspecified)	inactive: -1.07%
CC(C)Oc1ccc(C(=O)NCC2(N(C)C)CCCCC2)cc1	inactive: 14.1%
O=C(OCCN1CCCC1)C(O)(c1ccccc1)c1ccccc1	inactive: -1.1%
CN(C)c1cccc(C(=O)NCC2(N(C)C)CCCCC2)c1	inactive: 4.52%
C=C(C)C#CC(O)(C(=O)OC1CCN(C)CC1)c1ccccc1 (stereo unspecified)	inactive: 15.1%
COc1ccc(Br)c(C(=O)NCC2(N3CCCCC3)CCCCC2)c1	inactive: 13.4%
CN1[C@@H]2CC[C@H]1CC(OC(=O)C(O)(c1ccccc1)c1ccccc1)C2 (stereo partly specified)	inactive: -9.96%
O=C(NCC1(N2CCCCC2)CCCCC1)c1cc([N+](=O)[O-])ccc1Cl	inactive: 3.99%
Cc1ccc(C(=O)NCC2(N3CCCCC3)CCCCC2)cc1	inactive: 0.18%
CCN(CC)CC(C)C(C)OC(=O)C(O)(c1ccccc1)c1ccccc1 (stereo unspecified)	inactive: 0.56%
COc1cc(SC)ccc1C(=O)NCC1(N(C)C)CCCCC1	inactive: 4.05%
CC(C)N1C(=O)CC2(CCN(CCOC(=O)C(O)(c3ccccc3)c3ccccc3)CC2)C1=O	inactive: 4.52%
Cc1ccccc1C(=O)NCC1(N2CCCCC2)CCCCC1	inactive: 3.61%
CN(C)c1ccc(C(=O)NCC2(N(C)C)CCCCC2)cc1	inactive: 2.9%
CN(C)C1CCCC1OC(=O)C(O)(c1ccccc1)c1ccccc1 (stereo unspecified)	inactive: 6.3%
COc1ccc(C(=O)NCC2(N(C)C)CCCCC2)cc1	inactive: 2.4%
CCN1CCCC(OC(=O)C2(O)c3ccccc3C=Cc3ccccc32)C1 (stereo unspecified)	inactive: 5.09%
Cc1cc(C(=O)NCC2(N3CCCCC3)CCCCC2)ccc1[N+](=O)[O-]	inactive: 0.42%
O=C(NCC1(N2CCCCC2)CCCCC1)c1cccc(Br)c1	inactive: 6.55%
C=CCN1CCN(CCOC(=O)C(O)(c2ccccc2)c2ccccc2)CC1	inactive: -5.84%
O=C(NCC1(N2CCCCC2)CCCCC1)c1cc(F)c(F)cc1Cl	inactive: 4.85%
